# In US10655130B2, “Modulation of breast cancer growth by modulation of XBP1 activity” (Cornell University, priority 2012, dated 2020):
# System: MDA-MB-231 xenograft tumors
# Settings: treatment every 5 days, from day 15 until day 30
structure (smiles),measurement,value
COc1cccc2c1C(=O)c1c(O)c3c(c(O)c1C2=O)C[C@@](O)(C(=O)CO)C[C@@H]3O[C@H]1C[C@H](N)[C@H](O)[C@H](C)O1 [doxorubicin],tumor growth,suppressed tumor growth
